Data from publication PMC5976250 (The Biochemical journal, 2017).

Target: recombinant rat CaM (calmodulin) (rat)
Experiment: MALDI mass spectrometry

Question: Which “stoichiometry N” value does the source give for GRRRIREDGLMKIYVLQLLARTV (acylated (Ac-) N-terminus; aminated (-NH2) C-terminus) [Cx45p_(164–186)] here?
Answer: The value was 1.
